{
  "source": "patent US8049063B2",
  "about": "“Rice bentazon and sulfonylurea herbicide resistant gene Cyp81a6” (Zhejiang University, priority 2005, dated 2011)",
  "tested_on": "Norin 8m, 8077S, their F1 hybrid and F2 plants",
  "assay": "Allelism test: bentazon sprayed on leaves of bentazon sensitive lethal mutants and their hybrids",
  "assay_type": "in vivo, rice",
  "method": "FIG. 2. Allelism test of bentazon sensitive lethal sites in Norin 8m and 8077S. a: the plants before bentazon treatment, left: Norin 8m; right: 8077S; middle: the F1 hybrid of Norin 8m and 8077S. b: the plants one week after the bentazon treatment. The applied concentration of bentazon is 1250 mg/l.\nAs mentioned above, the Japanese scholar Mori obtained a bentazon sensitive lethal mutant Norin 8m by γ-ray radiation treatment of Norin 8 (Mori, 1984). […] In order to verify whether the bentazon sensitive loci in both 8077S and Norin 8m are allelic, we made a cross between 8077S and Norin 8m and obtained the F1 hybrid and its selfed F2 population containing 800 plants. […] To distinguish the loci originated from 8077S and that originated from Norin 8m, we named them as cyp81A6-1 and cyp81 A6-2, respectively.",
  "data": [
    {"smiles": "CC(C)N1C(=O)c2ccccc2NS1(=O)=O", "note": "[bentazon]", "values": [
      {"measurement": "outcome of treated plants (both parents and F1)", "setting": "1250 mg/L sprayed on leaf surface at 9-10 leaves, Norin 8m, 8077S and F1, one week later", "value": "withered and died"},
      {"measurement": "outcome of treated F2 plants", "setting": "1250 mg/L, 800 F2 plants from selfed F1 of 8077S x Norin 8m", "value": "withered and died"}
    ]}
  ]
}
